Results published in publication PMC8740777 (The FASEB Journal, 2022).

Chains of the proteins cited; added tags and fusions are not shown.
UniProt P21453, whole entry: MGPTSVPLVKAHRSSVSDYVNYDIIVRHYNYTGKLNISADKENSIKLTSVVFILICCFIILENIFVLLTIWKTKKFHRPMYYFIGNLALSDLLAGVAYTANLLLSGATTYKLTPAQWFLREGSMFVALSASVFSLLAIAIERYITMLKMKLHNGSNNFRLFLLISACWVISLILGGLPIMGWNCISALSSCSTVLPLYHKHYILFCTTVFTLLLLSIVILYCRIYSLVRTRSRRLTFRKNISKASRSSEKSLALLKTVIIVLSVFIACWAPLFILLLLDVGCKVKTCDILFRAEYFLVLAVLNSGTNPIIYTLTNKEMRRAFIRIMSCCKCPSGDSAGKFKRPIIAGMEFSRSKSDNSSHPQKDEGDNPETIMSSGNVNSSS

Key:
[1] = molecular target: S1P1 (Homo sapiens, UniProt P21453); experiment: S1P1 internalization, wash-out experiment in S1P1-C6 cells; assay type: cell-based; conditions: 1 µM for 4 h, 18 h compound-free medium, FCM
[2] = molecular target: S1P1‐EGFP fusion construct (Homo sapiens, UniProt P21453); experiment: S1P1-EGFP internalization imaging in human primary astrocytes; assay type: cell-based; conditions: 1 µM, 1 h

CCCCCCCCc1ccc(CC[C@](N)(CO)COP(=O)(O)O)cc1 [Fingolimod-P, fingolimod phosphate]
cell surface expression of S1P1 after wash-out [1]: induced sustained S1P1 internalization
S1P1 internalization (S1P1-EGFP imaging) [2]: rapid S1P1 internalization
